For orientation: IC50 means the midpoint of a concentration-inhibition curve. Lower therefore signals inhibition by little substance.

Amino acid sequences for entries named in this document (tags omitted).
UniProt P35222, whole entry: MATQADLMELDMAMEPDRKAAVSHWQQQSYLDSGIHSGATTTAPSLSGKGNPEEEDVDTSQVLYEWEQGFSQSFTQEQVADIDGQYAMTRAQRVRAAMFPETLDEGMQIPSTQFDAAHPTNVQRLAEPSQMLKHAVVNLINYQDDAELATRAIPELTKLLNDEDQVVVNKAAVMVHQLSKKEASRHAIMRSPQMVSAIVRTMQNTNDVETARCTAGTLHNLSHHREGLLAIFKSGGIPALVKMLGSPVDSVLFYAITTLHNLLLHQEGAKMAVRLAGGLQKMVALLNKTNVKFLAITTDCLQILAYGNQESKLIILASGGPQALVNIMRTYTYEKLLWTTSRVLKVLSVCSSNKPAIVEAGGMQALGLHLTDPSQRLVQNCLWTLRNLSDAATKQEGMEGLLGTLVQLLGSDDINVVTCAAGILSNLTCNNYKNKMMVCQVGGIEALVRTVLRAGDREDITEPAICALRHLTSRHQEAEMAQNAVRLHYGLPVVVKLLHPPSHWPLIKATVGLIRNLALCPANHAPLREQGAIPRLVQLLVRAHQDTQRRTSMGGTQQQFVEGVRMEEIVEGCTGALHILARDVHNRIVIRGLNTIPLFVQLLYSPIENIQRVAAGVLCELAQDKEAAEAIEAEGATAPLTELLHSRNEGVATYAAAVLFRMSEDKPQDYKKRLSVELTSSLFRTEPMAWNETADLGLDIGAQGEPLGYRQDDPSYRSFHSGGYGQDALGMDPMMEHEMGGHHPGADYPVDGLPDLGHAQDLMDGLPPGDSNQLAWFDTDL

We go through 14 compounds from US20240360179A1, “STAPLED PEPTIDES AND METHODS THEREOF” (FOG PHARMACEUTICALS, INC., priority 2021, published 2024).

Assay [1] concerns the target beta-catenin/TCF4 interaction (Homo sapiens, UniProt P35222). Nature of the assay: cell-based. Set-up: host or cells: HEK293. The settings on record: NanoBRET Abs IC50 (uM). (Bioluminescence resonance energy transfer reports proximity on the nanometre scale.)
The target in assay [2] is T1, full-length B-Catenin (Uniprot ID P35222) (Homo sapiens, UniProt P35222).
T1 construct: 10 nM full-length B-Catenin (Uniprot ID P35222)
Kind of assay: biochemical. The assay is classed as binding. As to conditions: beta-Catenin FP IC50 (nM), competition fluorescence polarization. (In general: Polarisation of emitted light reports the rotation of a fluorescent probe.)

`CC(=O)N1CCC[C@]12CC=CCCCC1(CCCC=CCCCOC(=O)N3CC[C@@]4(C3)NC(=O)[C@@H](CCC(=O)NCCCC[C@@H](C(N)=O)NC(=O)[C@H](Cc3csc5ccccc35)NC(=O)[C@H](Cc3ccsc3)NC4=O)NC(=O)[C@H](Cc3ccccc3)NC(=O)[C@H](C)NC(=O)[C@H](C)NC(=O)[C@H](CC(=O)O)NC(=O)[C@H](CC(=O)O)NC1=O)NC(=O)[C@H](CC(C)C)NC(=O)[C@H](CC(=O)O)NC2=O` (relative stereo) [I-5, Ac-PL3-Asp-Leu-B5-Asp-Asp-Ala-Ala-Phe-DGlnR*3-PyrS2-3Thi-BztA-Lys*3-NH2]: the IC50 in assay [1] is greater than 10 µM; in assay [2] it was less than 50 nM. For `CC(=O)N1CCC[C@]12CC=CCCCC1(CCCC=CCCCOC(=O)N3CC[C@@]4(C3)NC(=O)[C@H](CCC(=O)NCCCC[C@@H](C(N)=O)NC(=O)[C@H](Cc3csc5ccccc35)NC(=O)[C@H](Cc3ccsc3)NC4=O)NC(=O)[C@H](Cc3ccccc3)NC(=O)[C@H](C)NC(=O)[C@H](C)NC(=O)[C@H](CC(=O)O)NC(=O)[C@H](CC(=O)O)NC1=O)NC(=O)[C@H](CC(C)C)NC(=O)[C@H](CC(=O)O)NC2=O` (relative stereo) [I-6, Ac-PL3-Asp-Leu-B5-Asp-Asp-Ala-Ala-Phe-GlnR*3-PyrS2-3Thi-BztA-Lys*3-NH2], the IC50 in assay [1] is greater than 10 µM; in assay [2], less than 50 nM. Regarding `CC(=O)N1CCC[C@]12CC=CCCCC1(CCCC=CCCCOC(=O)N3CC[C@@](C(=O)N[C@@H](Cc4ccsc4)C(=O)N[C@@H](Cc4csc5ccccc45)C(=O)N[C@@H](CCC(N)=O)C(N)=O)(C3)NC(=O)[C@@H]3CCC(=O)NCCCC[C@H](NC(=O)[C@H](CC(=O)O)NC(=O)[C@H](CC(=O)O)NC1=O)C(=O)N[C@@H](C)C(=O)N[C@@H](Cc1ccccc1)C(=O)N3)NC(=O)[C@H](CC(C)C)NC(=O)[C@H](CC(=O)O)NC2=O` (relative stereo) [I-7, Ac-PL3-Asp-Leu-B5-Asp-Asp-Lys*3-Ala-Phe-GlnR*3-PyrS2-3Thi-BztA-Gln-NH2], the results for the IC50 in assay [1] and in assay [2] were greater than 10 µM and less than 50 nM, respectively. As to `CC(=O)N1CCC[C@]12CC=CCCCC1(CCCC=CCCCOC(=O)N3CC[C@@](C(=O)N[C@@H](Cc4ccsc4)C(=O)N[C@@H](Cc4csc5ccccc45)C(=O)N[C@@H](CCC(N)=O)C(N)=O)(C3)NC(=O)[C@@H]3CCCCNC(=O)CC[C@H](NC(=O)[C@H](CC(=O)O)NC(=O)[C@H](CC(=O)O)NC1=O)C(=O)N[C@@H](C)C(=O)N[C@@H](Cc1ccccc1)C(=O)N3)NC(=O)[C@H](CC(C)C)NC(=O)[C@H](CC(=O)O)NC2=O` (relative stereo) [I-8, Ac-PL3-Asp-Leu-B5-Asp-Asp-GlnR*3-Ala-Phe-Lys*3-PyrS2-3Thi-BztA-Gln-NH2], the IC50 in assay [1] was greater than 10 µM; in assay [2], less than 50 nM. On to `CC(=O)N1CCC[C@]12CC=CCCCC1(CCCC=CCCCOC(=O)N3CC[C@@]4(C3)NC(=O)[C@H](CCCCNC(=O)CC[C@@H](C(N)=O)NC(=O)[C@H](Cc3csc5ccccc35)NC(=O)[C@H](Cc3ccsc3)NC4=O)NC(=O)[C@H](Cc3ccccc3)NC(=O)[C@H](C)NC(=O)[C@H](C)NC(=O)[C@H](Cc3cccc(C(=O)O)c3)NC(=O)[C@H](CC(=O)O)NC1=O)NC(=O)[C@H](CC(C)(C)C)NC(=O)[C@H](CC(=O)O)NC2=O` (relative stereo) [I-32, Ac-PL3-Asp-Npg-B5-Asp-3COOHF-Ala-Ala-Phe-Lys*3-PyrS2-3Thi-BztA-GlnR*3-NH2], for which the figures for the IC50 in assay [1] and in assay [2] were less than 1.5 µM and less than 50 nM, respectively.

With `CC(=O)N1CCC[C@]12CC=CCCCC1(CCCC=CCCCOC(=O)N3CC[C@@]4(C3)NC(=O)[C@H](CCC(=O)NCCCC[C@@H](C(N)=O)NC(=O)[C@H](Cc3csc5ccccc35)NC(=O)[C@H](Cc3ccsc3)NC4=O)NC(=O)[C@H](Cc3ccccc3)NC(=O)[C@H](C)NC(=O)[C@H](C)NC(=O)[C@H](Cc3cccc(C(=O)O)c3)NC(=O)[C@H](CC(=O)O)NC1=O)NC(=O)[C@H](CC(C)(C)C)NC(=O)[C@H](CC(=O)O)NC2=O` (relative stereo) [I-33, Ac-PL3-Asp-Npg-B5-Asp-3COOHF-Ala-Ala-Phe-GlnR*3-PyrS2-3Thi-BztA-Lys*3-NH2], the IC50 in assay [1] was 3 to 10 µM; in assay [2] it was less than 50 nM. Turning to `CC(=O)N1CCC[C@]12CC=CCCCC1(CCCC=CCCCOC(=O)N3CC[C@@]4(C3)NC(=O)[C@H](CCCCNC(=O)C[C@@H](C(N)=O)NC(=O)[C@H](Cc3csc5ccccc35)NC(=O)[C@H](Cc3ccsc3)NC4=O)NC(=O)[C@H](Cc3ccccc3)NC(=O)[C@H](C)NC(=O)[C@H](C)NC(=O)[C@H](Cc3cccc(C(=O)O)c3)NC(=O)[C@H](CC(=O)O)NC1=O)NC(=O)[C@H](CC(C)(C)C)NC(=O)[C@H](CC(=O)O)NC2=O` (relative stereo) [I-34, Ac-PL3-Asp-Npg-B5-Asp-3COOHF-Ala-Ala-Phe-Lys*3-PyrS2-3Thi-BztA-AsnR*3-NH2], the IC50 was 3 to 10 µM in assay [1] and less than 50 nM in assay [2].

Take `CC(=O)N1CCC[C@]12CC=CCCCC1(CCCC=CCCCOC(=O)N3CC[C@@]4(C3)NC(=O)[C@H](CCCCNC(=O)CC[C@@H](C(=O)N[C@@H](C)C(N)=O)NC(=O)[C@H](Cc3csc5ccccc35)NC(=O)[C@H](Cc3ccsc3)NC4=O)NC(=O)[C@H](Cc3ccccc3)NC(=O)[C@H](C)NC(=O)[C@H](C)NC(=O)[C@H](Cc3cccc(C(=O)O)c3)NC(=O)[C@H](CC(=O)O)NC1=O)NC(=O)[C@H](CC(C)(C)C)NC(=O)[C@H](CC(=O)O)NC2=O` (relative stereo) [I-42, Ac-PL3-Asp-Npg-B5-Asp-3COOHF-Ala-Ala-Phe-Lys*3-PyrS2-3Thi-BztA-GlnR*3-Ala-NH2]: the IC50 is 1.5 to 3 µM in assay [1] and less than 50 nM in assay [2].

`CC(=O)N1CCC[C@]12CC=CCCCC1(CCCC=CCCCOC(=O)N3CC[C@@]4(C3)NC(=O)[C@H](CCC(=O)NCCCC[C@@H](C(=O)N[C@@H](C)C(N)=O)NC(=O)[C@H](Cc3csc5ccccc35)NC(=O)[C@H](Cc3ccsc3)NC4=O)NC(=O)[C@H](Cc3ccccc3)NC(=O)[C@H](C)NC(=O)[C@H](C)NC(=O)[C@H](Cc3cccc(C(=O)O)c3)NC(=O)[C@H](CC(=O)O)NC1=O)NC(=O)[C@H](CC(C)(C)C)NC(=O)[C@H](CC(=O)O)NC2=O` (relative stereo) [I-43, Ac-PL3-Asp-Npg-B5-Asp-3COOHF-Ala-Ala-Phe-GlnR*3-PyrS2-3Thi-BztA-Lys*3-Ala-NH2]: the IC50 in assay [1] is 1.5 to 3 µM; in assay [2] it was less than 50 nM. Take `CC(=O)N1CCC[C@]12CC=CCCCC1(CCCC=CCCCOC(=O)N3CC[C@@]4(C3)NC(=O)[C@H](CCCCNC(=O)CC[C@@H](C(N)=O)NC(=O)[C@H](Cc3csc5ccccc35)NC(=O)[C@H](Cc3ccccc3C(F)(F)F)NC4=O)NC(=O)[C@H](Cc3ccccc3)NC(=O)[C@H](C)NC(=O)[C@H](C)NC(=O)[C@H](Cc3cccc(C(=O)O)c3)NC(=O)[C@H](CC(=O)O)NC1=O)NC(=O)[C@H](CC(C)(C)C)NC(=O)[C@H](CC(=O)O)NC2=O` (relative stereo) [I-55, Ac-PL3-Asp-Npg-B5-Asp-3COOHF-Ala-Ala-Phe-Lys*3-PyrS2-2F3MeF-BztA-GlnR*3-NH2]: the IC50 in assay [1] is 1.5 to 3 µM; in assay [2] it was less than 50 nM. With `CC(=O)N1CCC[C@]12CC=CCCCC1(CCCC=CCCCOC(=O)N3CC[C@@]4(C3)NC(=O)[C@H](CCCCNC(=O)CC[C@@H](C(=O)N[C@@H](CC(C)C)C(=O)N[C@@H](CCC(=O)O)C(=O)N[C@@H](C)C(N)=O)NC(=O)[C@H](Cc3csc5ccccc35)NC(=O)[C@H](Cc3ccsc3)NC4=O)NC(=O)[C@H](Cc3ccccc3)NC(=O)[C@H](C)NC(=O)C(C)(C)NC(=O)[C@H](Cc3cccc(C(=O)O)c3)NC(=O)[C@H](CC(=O)O)NC1=O)NC(=O)[C@H](CC(C)(C)C)NC(=O)[C@H](CC(=O)O)NC2=O` (single isomer, unassigned) [I-495, Ac-PL3-Asp-Npg-B5-Asp-3COOHF-Aib-Ala-Phe-Lys*3-PyrS2-3Thi-BztA-GlnR*3-Leu-Glu-Ala-NH2], in assay [1] (absolute IC50), the IC50 was in the range of 1.5 to 3 µM. For `CC(=O)N1CCC[C@]12CC=CCCCC1(CCCC=CCCCOC(=O)N3CC[C@@]4(C3)NC(=O)[C@H](CCCCNC(=O)CC[C@@H](C(=O)N[C@@H](CC(C)C)C(=O)N[C@@H](CO)C(=O)N[C@@H](C)C(N)=O)NC(=O)[C@H](Cc3csc5ccccc35)NC(=O)[C@H](Cc3ccsc3)NC4=O)NC(=O)[C@H](Cc3ccccc3)NC(=O)[C@H](C)NC(=O)C(C)(C)NC(=O)[C@H](Cc3cccc(C(=O)O)c3)NC(=O)[C@H](CC(=O)O)NC1=O)NC(=O)[C@H](CC(C)(C)C)NC(=O)[C@H](CC(=O)O)NC2=O` (single isomer, unassigned) [I-497, Ac-PL3-Asp-Npg-B5-Asp-3COOHF-Aib-Ala-Phe-Lys*3-PyrS2-3Thi-BztA-GlnR*3-Leu-Ser-Ala-NH2], the IC50 in assay [1] (absolute IC50) fell in the range of 1.5 to 3 µM. The same measure, in the same setting: the result for `CC(=O)N1CCC[C@]12CC=CCCCC1(CCCC=CCCCOC(=O)N3CC[C@@]4(C3)NC(=O)[C@H](CCCCNC(=O)CC[C@@H](C(=O)N[C@@H](CC(C)C)C(=O)N[C@H](C(=O)N[C@@H](C)C(N)=O)[C@@H](C)O)NC(=O)[C@H](Cc3csc5ccccc35)NC(=O)[C@H](Cc3ccsc3)NC4=O)NC(=O)[C@H](Cc3ccccc3)NC(=O)[C@H](C)NC(=O)C(C)(C)NC(=O)[C@H](Cc3cccc(C(=O)O)c3)NC(=O)[C@H](CC(=O)O)NC1=O)NC(=O)[C@H](CC(C)(C)C)NC(=O)[C@H](CC(=O)O)NC2=O` (single isomer, unassigned) [I-499, Ac-PL3-Asp-Npg-B5-Asp-3COOHF-Aib-Ala-Phe-Lys*3-PyrS2-3Thi-BztA-GlnR*3-Leu-Thr-Ala-NH2] reads 3 to 10 µM.

For `CC(=O)N1CCC[C@]12CC=CCCCC1(CCCC=CCCCOC(=O)N3CC[C@@]4(C3)NC(=O)[C@H](CCCCNC(=O)CC[C@@H](C(=O)N[C@@H](CC(C)C)C(=O)N[C@H](C(=O)N[C@@H](C)C(N)=O)[C@H](C)O)NC(=O)[C@H](Cc3csc5ccccc35)NC(=O)[C@H](Cc3ccsc3)NC4=O)NC(=O)[C@H](Cc3ccccc3)NC(=O)[C@H](C)NC(=O)C(C)(C)NC(=O)[C@H](Cc3cccc(C(=O)O)c3)NC(=O)[C@H](CC(=O)O)NC1=O)NC(=O)[C@H](CC(C)(C)C)NC(=O)[C@H](CC(=O)O)NC2=O` (single isomer, unassigned) [I-501, Ac-PL3-Asp-Npg-B5-Asp-3COOHF-Aib-Ala-Phe-Lys*3-PyrS2-3Thi-BztA-GlnR*3-Leu-aThr-Ala-NH2], the half-inhibitory concentration (IC50) in assay [1] (absolute IC50) lay in the range of 3 to 10 µM.
